Test [1] addresses T1, WT HIV protease (Human immunodeficiency virus type 1 group M subtype B, UniProt P04585).
T1 construct: synthetic hexapeptide substrate cleavage by HIV-1 protease
Briefly: biochemical. The class given is biochemical, HIV-1.

The target of test [2] is T2, recombinant HIV-1 protease (Human immunodeficiency virus type 1 group M subtype B, UniProt P04585).
T2 construct: Enzyme: recombinant HIV-1 protease expressed in E.Coli; purchased Bachem California, Inc. H-9040; host or cells: E. coli
Put plainly: biochemical.

Test [3] deals with HIV-1 46I50V. Put plainly: microbe, parasite or virus in culture. As to conditions: Human immunodeficiency virus 1, read-out: Cell-based assay (MT-4) EC50/nM 46I50V.
The target in test [4] is T3, human leukocyte elastase (huLE) (Homo sapiens, UniProt P08246).
T3 sequence (P08246 30-267): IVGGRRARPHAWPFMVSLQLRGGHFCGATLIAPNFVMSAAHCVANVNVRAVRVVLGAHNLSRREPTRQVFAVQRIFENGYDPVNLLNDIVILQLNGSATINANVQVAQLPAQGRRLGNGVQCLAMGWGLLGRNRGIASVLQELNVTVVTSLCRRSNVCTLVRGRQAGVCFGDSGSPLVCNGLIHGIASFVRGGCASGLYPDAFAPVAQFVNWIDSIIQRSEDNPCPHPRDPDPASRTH
The class given is biochemical.

In test [5] the test system is WT HIV-1. As to conditions: read-out: Cell-based assay (MT-4) EC50/nM WT.

Where two headings read alike, the source gives them in different places.

As usually defined, the Ki is the equilibrium dissociation constant of an inhibitor or competing ligand from its target.

Compound `O=C(O)c1cccc(CN2C(=O)N(Cc3ccc(O)cc3)C(Cc3ccccc3)C(O)C(O)C2Cc2ccccc2)c1` (stereo not shown) displayed an IC50 in test [1] of 15 nM.
On to `Nc1n[nH]c2ccc(CN3C(=O)N(Cc4cccc(C(=O)O)c4)C(Cc4ccccc4)C(O)C(O)C3Cc3ccccc3)cc12` (stereo not shown), for which the Ki in test [2] (Ki (nM)) came out at 0.091 nM. This compound showed an IC50 in test [1] of 3.4 nM.
Consider `CCOP(=O)(COc1ccc(CC2C(O)C(O)C(Cc3ccccc3)N(Cc3ccccc3)C(=O)N2Cc2ccccc2)cc1)OCC` (stereo not shown), for which the Ki in test [2] (Ki (nM)) worked out at 0.656 nM. Also, the IC50 in test [1] was found to be 3.9 nM.
In test [1], `Nc1n[nH]c2ccc(CN3C(=O)N(CCCCOCP(=O)(O)O)C(Cc4ccccc4)C(O)C(O)C3Cc3ccccc3)cc12` (stereo not shown) [CH2 OCH2PO3H2] had an IC50 of 42 nM.
Take `CCOP(=O)(COCCCCN1C(=O)N(Cc2ccc3[nH]nc(N)c3c2)C(Cc2ccccc2)C(O)C(O)C1Cc1ccccc1)OCC` (stereo not shown) [CH2OCH2PO3Et2]: the inhibition constant (Ki) in test [2] (Ki (nM)) worked out at 2.8 nM. The compound further showed an IC50 in test [1] of 13 nM. The EC50 in test [3] worked out at 789 nM.
On to `CCCCN1C(=O)N(Cc2ccc3[nH]nc(N)c3c2)C(Cc2ccccc2)C(O)C(O)C1Cc1ccccc1` (stereo not shown) [DMP-851], for which the IC50 in test [1] (read-out: WT IC50/nM) was 3.8 nM.
Turning to `COC(=O)CCC(=O)N[C@@H](C)C(=O)N[C@@H](C)C(=O)N1CCC[C@H]1C(=O)N[C@@H](C)C(=O)CCl` [MeOSuC-Ala-Ala-Pro-Ala-CMK], the IC50 in test [4] worked out at 60 µM.
In the case of `CCOP(=O)(COCCCN1C(=O)N(Cc2ccc3[nH]nc(N)c3c2)C(Cc2ccccc2)C(O)C(O)C1Cc1ccccc1)OCC` (stereo not shown) [OCH2PO3Et2], the Ki in test [2] (Ki (nM)) turned out to be 1.23 nM. In test [1], this compound registered an IC50 of 23 nM.
Turning to `CCOP(=O)(COc1ccc(CC2C(O)C(O)C(Cc3ccc(OC)cc3)N(Cc3cccc(N)c3)C(=O)N2Cc2cccc(N)c2)cc1)OCC` (stereo not shown) [OCH3, Ph-mNH2, OCH2PO3Et2], the Ki in test [2] (Ki (nM)) is less than 0.01 nM. In test [1], this compound had an IC50 of 3.6 nM.
On to `CCOP(=O)(COc1ccc(CC2C(O)C(O)C(Cc3ccc(OC)cc3)N(Cc3cccnc3)C(=O)N2Cc2cccnc2)cc1)OCC` (stereo not shown) [OCH3, m-pyridine, OCH2PO3Et2], for which the EC50 in test [5] was determined as 115 nM.
As for `CCOP(=O)(COc1ccc(CC2C(O)C(O)C(Cc3ccc(O)cc3)N(Cc3ccc(O)cc3)C(=O)N2Cc2ccc(O)cc2)cc1)OCC` (stereo not shown) [OH, Ph-pOH, OCH2PO3Et2], the Ki in test [2] (Ki (nM)) is less than 0.01 nM. The compound also yielded an IC50 in test [1] of 2.6 nM.
Regarding `COc1ccc(S(=O)(=O)N(CC(C)C)CC(O)C(Cc2ccc(OCP(=O)(O)OC(C)C(=O)O)cc2)NC(=O)OC2COC3OCCC23)cc1` (stereo not shown) [drawing 615 R1=OH R2=Lac-OH], in test [2] (Ki), the Ki was less than 0.01 nM.
In the case of `CCOP(=O)(CCNCc1ccc(CC(NC(=O)OC2COC3OCCC23)C(O)CN(CC(C)C)S(=O)(=O)c2ccc(OC)cc2)cc1)OCC` (stereo not shown) [drawing 619 R1=Et R2=Et], the Ki entry in test [2] was “+ +”.
For the compound `COc1ccc(S(=O)(=O)N(CC(C)C)CC(O)C(Cc2ccc(CNCCP(=O)(O)O)cc2)NC(=O)OC2COC3OCCC23)cc1` (stereo not shown) [drawing 619 R1=H R2=H], in test [2], the Ki entry is given as “+ +”.
The same measure, in the same setting: under `COc1ccc(S(=O)(=O)N(CC(C)C)CC(O)C(Cc2ccc(CNCCP(=O)(O)OC(C)C(=O)O)cc2)NC(=O)OC2COC3OCCC23)cc1` (stereo not shown) [drawing 619 R1=H R2=Lac] stands “+ +”.
Take `COc1ccc(S(=O)(=O)N(CC(C)C)CC(O)C(Cc2ccc(CN(C)CCP(=O)(O)O)cc2)NC(=O)OC2COC3OCCC23)cc1` (stereo not shown) [drawing 620 R1=H R2=H]: the Ki result in test [2] was “+ +”.
`CCOP(=O)(CON=Cc1ccc(CC(NC(=O)OC2COC3OCCC23)C(O)CN(CC(C)C)S(=O)(=O)c2ccc(OC)cc2)cc1)OCC` (stereo not shown) [drawing 621 R1=Et R2=Et]: the Ki entry in test [2] is “+ +”.
For the compound `CCOP(=O)(CCN1CCN(CC(NC(=O)OC2COC3OCCC23)C(O)CN(CC(C)C)S(=O)(=O)c2ccc(OC)cc2)CC1)OCC` (stereo not shown) [drawing 623], in test [2] (Ki), the Ki was more than 1 nM.
For the compound `COc1ccc(S(=O)(=O)N(CC(C)C)CC(O)C(CC2=CCN(CCP(=O)(OCc3ccccc3)OCc3ccccc3)CC2)NC(=O)OC2COC3OCCC23)cc1` (stereo not shown) [drawing 630], the Ki result in test [2] is “+ +”.
For `COc1ccc(S(=O)(=O)N(CC(C)C)CC(O)C(Cc2ccc(NCP(=O)(O)O)cc2)NC(=O)OC2COC3OCCC23)cc1` (stereo not shown) [drawing 657], in test [2], the Ki result is given as “+ + +”.
For `CC(C)CN(CC(O)C(Cc1ccc(OCP(=O)(O)O)cc1)NC(=O)OC1COC2OCCC12)S(=O)(=O)c1ccc(O)cc1` (stereo not shown) [drawing 723], the “Ki (pM)” value in test [2] is recorded as “+ + +”.
For the compound `CCOP(=O)(COc1ccc(CC(NC(=O)OC2COC3OCCC23)C(O)CN(CC(C)C)S(=O)(=O)c2ccc(O)cc2)cc1)OCC` (stereo not shown) [drawing 724], the “Ki (pM)” value in test [2] is “+ + +”.
With `CCOP(=O)(CCCNC(=O)c1cccc(CN2C(=O)N(Cc3ccc4[nH]nc(N)c4c3)C(Cc3ccccc3)C(O)C(O)C2Cc2ccccc2)c1)OCC` (stereo not shown) [drawing 809], in test [2] (Ki (nM)), the Ki amounted to 0.157 nM. Further, the IC50 in test [1] came out at 1.6 nM.
With `CCOP(=O)(CCCNC(=O)c1cccc(CN2C(=O)N(Cc3ccc4[nH]nc(N)c4c3)C(Cc3ccccc3)C(O)C(O)C2Cc2ccccc2)c1)OCC` (stereo not shown) [drawing 820], the Ki in test [2] is 0.157 nM. Further, the IC50 in test [1] (read-out: WT IC50/nM) turned out to be 1.6 nM.
In the case of `Nc1n[nH]c2ccc(CN3C(=O)N(Cc4cccc(OCc5ccccc5)c4)C(Cc4ccccc4)C(O)C(O)C3Cc3ccccc3)cc12` (stereo not shown) [m-OBn], the Ki in test [2] (read-out: Ki) was determined as 0.253 nM. The IC50 in test [1] (read-out: WT IC50/nM) was 6.9 nM.
Consider `O=C1N(Cc2ccccc2)[C@H](Cc2ccccc2)[C@H](O)[C@@H](O)[C@@H](Cc2ccccc2)N1Cc1ccc2[nH]ncc2c1` [reference compound], for which, in test [2] (Ki (nM)), the Ki amounted to 0.37 nM. The IC50 in test [1] came to 5.8 nM.

The values are drawn from US20040121316A1 (priority 2002, published 2004).
